The values below come from article PMC4428678.

The target in this assay is His-tagged human CRMP-2 (residues 1-490) (human) (UniProt Q16555). As to the kind of experiment: SEC.

In turn, “His-tagged human CRMP-2 (residues 1-490) (from UniProt Q16555 1-490) (domain or fragment)” returned a stoichiometry N of 4.
